This note sets out measurements from US20250360143A1, “COMPOSITIONS AND METHODS FOR PHARMACOLOGIC TREATMENT OF STROKE AND MYOCARDIAL ISCHEMIA REPERFUSION INJURY” (priority 2022, published 2025).

Counter-ions that a name gives are not always drawn.

One assay has as its target T1, hP2X4R (Homo sapiens, UniProt Q99571).
T1 construct: expressed in transfected cells; host or cells: HEK-293
T1 sequence (Q99571 1-388): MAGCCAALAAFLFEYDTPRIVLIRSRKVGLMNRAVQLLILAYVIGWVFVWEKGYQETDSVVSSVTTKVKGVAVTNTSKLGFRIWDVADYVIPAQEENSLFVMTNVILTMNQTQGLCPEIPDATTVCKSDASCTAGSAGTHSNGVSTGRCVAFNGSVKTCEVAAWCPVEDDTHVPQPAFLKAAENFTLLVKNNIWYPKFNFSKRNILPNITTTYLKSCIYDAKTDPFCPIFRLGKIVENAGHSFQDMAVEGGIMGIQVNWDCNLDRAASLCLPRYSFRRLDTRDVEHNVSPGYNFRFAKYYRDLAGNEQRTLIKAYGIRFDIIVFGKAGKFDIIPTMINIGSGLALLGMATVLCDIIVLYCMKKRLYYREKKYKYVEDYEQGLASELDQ
Type of assay: cell-based. The conditions noted are these: for hP2X4R inhibitory activity relative to 22a, in words: SAR comparison with reference antagonist 22a; for IC50: agonist CTP 10 μM (~EC80).

A further assay addresses T2, hP2X3R (Homo sapiens, UniProt P56373).
T2 construct: expressed in transfected cells; host or cells: CHO-K1
T2 sequence (P56373 1-397): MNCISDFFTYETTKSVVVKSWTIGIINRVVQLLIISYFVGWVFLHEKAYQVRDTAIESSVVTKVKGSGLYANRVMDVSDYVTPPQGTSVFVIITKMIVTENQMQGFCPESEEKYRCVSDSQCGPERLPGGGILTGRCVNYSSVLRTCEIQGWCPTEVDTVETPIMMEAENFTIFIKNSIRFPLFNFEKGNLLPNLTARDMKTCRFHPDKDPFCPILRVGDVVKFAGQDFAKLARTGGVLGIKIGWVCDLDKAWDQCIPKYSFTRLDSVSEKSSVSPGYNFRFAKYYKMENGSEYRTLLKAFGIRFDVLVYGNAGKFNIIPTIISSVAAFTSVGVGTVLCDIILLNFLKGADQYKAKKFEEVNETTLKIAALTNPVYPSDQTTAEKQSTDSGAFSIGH
In words: cell-based. As to conditions: CHO-K1, read-out: hP2X3R % inhib.

In a further assay the target is T3, hP2X2/3R (Homo sapiens, UniProt P56373+Q9UBL9).
T3 construct: expressed in transfected cells; host or cells: CHO-K1
T3 sequence (Q9UBL9 1-471): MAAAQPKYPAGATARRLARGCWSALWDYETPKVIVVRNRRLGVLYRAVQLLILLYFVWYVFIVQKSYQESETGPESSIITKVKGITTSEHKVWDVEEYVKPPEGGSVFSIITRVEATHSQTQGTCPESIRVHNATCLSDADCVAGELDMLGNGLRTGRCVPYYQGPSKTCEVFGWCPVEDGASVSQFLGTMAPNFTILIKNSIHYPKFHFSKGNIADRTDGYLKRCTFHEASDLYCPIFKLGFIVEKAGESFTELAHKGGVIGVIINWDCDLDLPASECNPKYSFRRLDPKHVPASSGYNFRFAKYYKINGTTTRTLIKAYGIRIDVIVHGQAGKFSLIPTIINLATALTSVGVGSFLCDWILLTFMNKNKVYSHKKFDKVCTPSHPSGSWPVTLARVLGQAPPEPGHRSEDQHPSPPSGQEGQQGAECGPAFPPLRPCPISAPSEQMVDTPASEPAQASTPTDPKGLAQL
T3 sequence (P56373 1-397): T2 sequence (P56373 1-397)
Put plainly: cell-based. As to conditions: CHO-K1, read-out: hP2X2/3R % inhib.

The next assay addresses T4, hP2X1R (Homo sapiens, UniProt P51575).
T4 construct: expressed in transfected cells; host or cells: CHO-K1
T4 sequence (P51575 1-399): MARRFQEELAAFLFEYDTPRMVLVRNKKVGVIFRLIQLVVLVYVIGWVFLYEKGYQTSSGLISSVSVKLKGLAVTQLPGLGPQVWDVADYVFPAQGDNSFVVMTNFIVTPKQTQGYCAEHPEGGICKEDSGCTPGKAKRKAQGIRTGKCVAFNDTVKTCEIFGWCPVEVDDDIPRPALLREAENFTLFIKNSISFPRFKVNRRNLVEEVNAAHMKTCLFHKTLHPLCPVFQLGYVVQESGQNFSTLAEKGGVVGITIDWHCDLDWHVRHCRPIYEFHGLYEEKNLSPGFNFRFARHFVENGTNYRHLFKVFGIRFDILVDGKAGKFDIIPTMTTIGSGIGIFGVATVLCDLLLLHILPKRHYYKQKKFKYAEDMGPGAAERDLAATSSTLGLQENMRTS
In words: cell-based. The conditions noted are these: CHO-K1, read-out: hP2X1R % inhib.

The subject of assay [1] is middle-aged mice after MCAo. The conditions noted are these: four weeks after MCAo.

Consider `Cc1ccc2c3c(ccc2c1)N(c1cccc(-c2noc(=S)[nH]2)c1)C(=O)CC(=O)N3` [Compound 22c], for which the “hP2X4R inhibitory activity relative to 22a, in words” value at hP2X4R is “did not lower the inhibitory activity”. On hP2X4R, the 50% inhibitory concentration (IC50) is 1.38 µM. Moreover, the “selectivity for P2X4R versus hP2X1R, hP2X2/3R and hP2X3R” value on hP2X4R (in words) is “selective”. The inhibition at 30 µM was 6% on hP2X3R, 11% on hP2X2/3R and -4% on hP2X1R.
As to `O=C1CC(=O)N(c2ccnc(-c3noc(=S)[nH]3)c2)c2ccc3ccccc3c2N1` [Compound 21u, 5-(2-(5-Thioxo-4,5-dihydro-1,2,4-oxadiazol-3-yl)pyridin-4-yl)-1,5-dihydro-2H-naphtho[1,2-b][1,4]diazepine-2,4(3H)-dione triethylamine salt], the values for the inhibition at 30 µM at hP2X3R, at hP2X2/3R and on hP2X1R were 11%, 0% and 15%, respectively. Further, in assay [1], the “learning and memory function after stroke, NORT, across doses” value was “dose dependent improvement”.
As for `Cc1ccc2ccc3c(c2c1)NC(=O)CC(=O)N3c1cccc(-c2noc(=S)[nH]2)c1` [Compound 22b], the IC50 at hP2X4R is 17.9 µM. The “decrease of hP2X4R inhibitory activity relative to 22a” value at hP2X4R (vs known antagonist 22a) was found to be 13 fold. Also, the inhibition at 30 µM at hP2X3R was determined as 13%; at hP2X2/3R, 9%; at hP2X1R it was 6%.
On to `O=C1CC(=O)N(c2cccc(-c3noc(=S)[nH]3)c2)c2cc(Br)c3ccccc3c2N1` [Compound 21d, 7-Bromo-5-(3-(5-thioxo-4,5-dihydro-1,2,4-oxadiazol-3-yl)phenyl)-1,5-dihydro-2H-naphtho[1,2-b][1,4]diazepine-2,4(3H)-dione triethylamine salt], for which, on hP2X4R, the “hP2X4R inhibitory activity relative to 22a, in words” value is “only moderately reduced activity”. The molecule also displayed an IC50 on hP2X4R of 9.51 µM. Besides, the inhibition at 30 µM on hP2X3R worked out at 7%; on hP2X2/3R it was 11%; at hP2X1R, 5%.

As usually defined, the IC50 is the point on the concentration scale where inhibition reaches its midpoint. The low end stands for greater potency, the high end for weaker potency.
